# Yeast mating assay B: variants of the scFv Ab-14

From the AlphaSeq antibody data of Li et al. 2023 (doi:10.1038/s41467-023-39022-2), copy in the FLAb collection.

Antigen: PDVDLGDISGINAS, a 14-residue peptide of the SARS-CoV-2 spike HR2 region.

Parent scFv Ab-14: VH joined to VL by three GGGGS repeats. Changes lie in the heavy chain CDRs alone.
VH: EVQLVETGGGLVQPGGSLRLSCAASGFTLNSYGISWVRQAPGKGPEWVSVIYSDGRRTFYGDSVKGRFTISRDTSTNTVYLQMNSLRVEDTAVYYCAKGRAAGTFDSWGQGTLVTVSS
VL: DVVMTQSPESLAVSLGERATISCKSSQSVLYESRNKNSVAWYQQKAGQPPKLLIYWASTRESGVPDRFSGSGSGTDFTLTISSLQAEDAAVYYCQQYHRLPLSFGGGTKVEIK

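The starting antibody came from a phage panning campaign against this peptide. The variants were designed computationally from a first round of random CDR variants and then made and measured. Several design methods are mixed in this list. In AlphaSeq, yeast of one mating type display the scFv and yeast of the other type display the target. Binding brings cells together so that they mate, and sequencing counts the barcode pairs among the diploids. Read counts were normalised to the haploid input and turned into Kd by a linear fit to BCL2-family pairs of known affinity, for each replicate. Each pool was mated in six replicate cultures.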

The parent's heavy chain CDRs are GFTLNSYGIS, VIYSDGRRTFYGDSVK, GRAAGTFDS; each variant's own CDRs replace them letter for letter. Affinities are written as log10 Kd with Kd in nM; a lower number is a better binder. "n.d." means that the variant was in the library but no mating with the target was seen in that replicate; the authors take this as a sign of poor binding, and no number exists. In the paper, a design with two or fewer of six values counts as a poor binder.

"log10 Kd, replicates",CDR-H1,CDR-H2,CDR-H3
0.85 / 0.61 / 0.82 / 1.12 / 0.95 / 1.84,GFTLNSYGIS,VIYADGRRTFYQDSVR,GKYGGTFDS
-0.69 / -0.97 / -1.23 / -0.96 / -0.84 / -0.62,GFSLNDYGIS,VIYSDGRRTFYGDSVK,GRCAGTFDS
-0.05 / -0.31 / -0.44 / -0.38 / -0.44 / -0.25,GFDLEDYGIS,VIYADGMRTAYSDSVK,GNQAGTFDV
n.d. / n.d. / n.d. / n.d. / n.d. / n.d.,GFHLNSYGIS,VIYSDGVRTMYGDSVK,GRSAGTFDC
0.35 / 0.45 / 0.35 / 0.44 / 0.28 / 0.82,GFHLNDYGIS,VIYSDGRRTWYGDSVK,GRAAGTFDS
0.01 / -0.08 / 0.87 / -0.33 / 0.19 / 0.35,GFDLNEYGIS,VIYADGKRTAYTDSVK,GNVAGTFDI
-0.17 / -0.64 / -0.60 / -0.49 / -0.57 / -0.35,GFDLNEYGIS,VIYADGQRTVYADSVK,GQNAGTFDV
0.20 / -0.03 / -0.15 / -0.18 / 0.34 / 0.53,GFEIQEYGIS,VIYADGRRQAYAESVK,GTLGGTFST
1.00 / 0.26 / 1.53 / 1.27 / 2.54 / n.d.,GFTLNEYGIS,VIYSDGRRTFYKDSVK,GREAGTFDV
0.37 / 0.43 / -0.25 / -0.66 / -0.58 / 1.09,GFSLNEYGIS,VIYSDGRRTFYGDSVK,GRFAGTFDS
-0.62 / -0.70 / -0.47 / -0.56 / -1.05 / -0.39,GFDLNEYGIS,VIYADGMRTFYVDSVK,GVNAGTFDS
0.93 / 0.71 / 0.52 / 0.79 / 0.63 / 0.90,GFTLNSYGIS,VIYSDGRRTFYSQSVK,GVEAGTFDS
1.27 / n.d. / 0.78 / 0.08 / 0.78 / n.d.,GFSLNSYGIS,VIYSDGRRTFYGDSVK,GWTAGTFDD
1.13 / 0.34 / n.d. / n.d. / 1.12 / 1.42,GFDLNEYGIS,VIYADGMRTAYVDNVK,GEVAGTFDI
n.d. / n.d. / n.d. / n.d. / n.d. / n.d.,GKGLDEYGVS,VIYADGKRHQYAEDVK,GGIAGQFLV
-0.85 / -0.72 / -0.93 / -0.92 / -0.96 / -0.91,GFDLNEYGIS,VIYADGQRTFYSDSVK,GNVAGTFDV
n.d. / 2.33 / n.d. / n.d. / 1.95 / 1.41,GFTLNSYGIS,VIYSDGRRTFYGDSVK,GDAMGTFDS
0.05 / -0.59 / -1.47 / 2.23 / -0.46 / -0.15,GFSLNSYGIS,VIYADGRRTFYGDSVK,GKAAGTFDL
0.45 / 0.24 / 0.37 / 0.15 / 0.23 / 0.58,GFDLNSYGIS,VIYSDGRRTFYGDSVK,GQTAGTFDG
0.06 / -0.25 / -0.16 / -0.23 / -0.16 / -0.24,GFELNEYGIS,VIYSDGRRTFYGDSVK,GRVAGTFDS
n.d. / n.d. / n.d. / n.d. / n.d. / n.d.,GDVLDEFGIS,VIYADGRRTAYTQDVK,GEKAGDFSF
-0.36 / -0.35 / -0.78 / -0.80 / -0.35 / -0.47,GFDLNEYGIS,VIYADGSRTFYSDSVK,GQTAGTFDQ
-0.22 / -0.48 / -0.61 / -0.69 / -0.15 / -0.14,GFQLNEYGIS,VIYSDGRRTFYSDQVK,GRQAGTFDS
n.d. / n.d. / 0.33 / n.d. / n.d. / 0.51,GFTINQYGIS,VIYSDGRRTFYQDSVK,GRVAGTFDS
-0.01 / 0.05 / 1.10 / -0.74 / -0.87 / -0.28,GFDLDEYGIS,VIYADGQRTAYADSVK,GNTAGTFDM
n.d. / 1.03 / 0.73 / 1.66 / 1.30 / n.d.,GFTLNEYGIS,VIYSDGRRTFYHDSVK,GRAAGSFDS
1.05 / 0.47 / 0.62 / 0.99 / 0.74 / 1.09,GFTLNEYGIS,VIYSDGRRTFYGDHVK,GRTAGTFDS
n.d. / n.d. / n.d. / n.d. / n.d. / n.d.,GFALNSYGIS,VIYSDGRRTFYGDSVK,GRAALTFDS
0.16 / 0.19 / -0.05 / -0.11 / -0.19 / -0.25,GFTLNQYGIS,VIYSDGRRTFYSDSVK,GRTAGTFDS
-0.25 / -0.34 / -0.61 / -0.73 / -0.55 / -0.23,GFDLDEYGIS,VIYADGRRTFYADSVK,GQNAGTFDI
n.d. / n.d. / n.d. / n.d. / n.d. / n.d.,GFTLNEYGIS,VIYSDGRRTFYTDSVK,GRLAGTFIS
-0.30 / -0.40 / -0.59 / -0.76 / -0.58 / -0.32,GFDLNEYGIS,VIYADGRRTAYADKVK,GQNAGTFDV
0.08 / 0.29 / 0.03 / -0.10 / 0.83 / 0.16,GFDLDEYGIS,VIYADGRRTFYADSVK,GELAGTFVS
-0.10 / -0.45 / -0.52 / -0.46 / -0.57 / -0.51,GFPLNEYGIS,VIYADGRRTFYGDSVK,GEAAGTFDS
-0.45 / -0.82 / -0.97 / -0.55 / -0.84 / -0.51,GFQLDEYGIS,VIYADGRRTFYADSVK,GENAGTFDM
0.30 / 0.17 / 0.23 / 0.05 / -0.02 / 0.07,GFTLNSYGIS,VIYSDGRRTFYSDDVK,GQAAGTFDT
n.d. / n.d. / n.d. / n.d. / n.d. / n.d.,GYDLVEYGIS,VIYADGQRTMYADTVK,GNHGGIIDV
-0.82 / -0.67 / -0.76 / -0.87 / -0.71 / -0.31,GFDLNEYGIS,VIYADGRRSFYADSVK,GELAGTFDS
n.d. / n.d. / n.d. / n.d. / n.d. / 2.03,GFNLDEEGIS,VIYADGIRTAYQDTVK,GQNVATFNV
0.97 / 0.84 / 0.88 / 0.45 / 0.91 / 0.78,GFELNNYGIS,VIYSDGRRTFYSDQVK,GQAAGTFDS
n.d. / n.d. / n.d. / n.d. / n.d. / n.d.,GFNLDEYGVS,VIYADGKRCQYTNNFK,GENAGFFML
0.37 / -0.05 / -0.33 / -0.30 / -0.03 / 0.23,GFNLNSYGIS,VIYSDGRRTFYADKVK,GNAAGTFDS

Extract of 6 entries:

| CDR-H1 | CDR-H2 | CDR-H3 | log10 Kd, replicates |
|---|---|---|---|
| GFELNNYGIS | VIYSDGRRTFYSDQVK | GQAAGTFDS | 0.97 / 0.84 / 0.88 / 0.45 / 0.91 / 0.78 |
| GFSLNDYGIS | VIYSDGRRTFYGDSVK | GRCAGTFDS | -0.69 / -0.97 / -1.23 / -0.96 / -0.84 / -0.62 |
| GFSLNEYGIS | VIYSDGRRTFYGDSVK | GRFAGTFDS | 0.37 / 0.43 / -0.25 / -0.66 / -0.58 / 1.09 |
| GFALNSYGIS | VIYSDGRRTFYGDSVK | GRAALTFDS | n.d. / n.d. / n.d. / n.d. / n.d. / n.d. |
| GFDLNEYGIS | VIYADGMRTAYVDNVK | GEVAGTFDI | 1.13 / 0.34 / n.d. / n.d. / 1.12 / 1.42 |
| GFTLNEYGIS | VIYSDGRRTFYHDSVK | GRAAGSFDS | n.d. / 1.03 / 0.73 / 1.66 / 1.30 / n.d. |

A sequence measured in both rounds can read differently, since the two assays cover different ranges. Three control strains display no target. For all heavy chain designs, 1% of the pairings with them gave a signal, with a median of 2.08 and one signal in twenty below 0.84, so weak values seen in few replicates may be background.